Reference: ChEMBL document CHEMBL4673253, “Discovery of EST73502, a Dual μ-Opioid Receptor Agonist and σ Receptor Antagonist Clinical Candidate for the Treatment of Pain” (J Med Chem, 2020)
Active and inactive are the calls of the source. No cut-off for these calls is given here.

Tests used:
[1] = system: Mus musculus; assay: Antinociceptive activity in orally dosed CD1 mouse assessed as by paw pressure test; assay type: functional
[2] = system: Mus musculus; assay: Antinociceptive activity in CD1 mouse at 10 to 40 mg/kg, po co-treated with 2 mg/kg, sc MOR antagonist naloxone by paw pressure test; conditions: dose 10-40 mg/kg

CCN1CC2(CCN(CCc3cc(F)ccc3F)CC2)O[C@H](C)C1=O
Activity [1]: Dose-dependent effect | Activity [2]: inactive
